The list shows a part of the results. Measured potencies and affinities stand elsewhere. Calls of active or inactive are those of the source.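 How the source made its calls: active means first-screen hits whose inhibition reached a set limit at any dose in the follow-up dose series; inconclusive means inhibition above the set first-screen limit but never retested; inactive means the rest.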
Molecular target: Rac GTPase-activating protein 1 (Homo sapiens) (UniProt Q9H0H5)
Experiment: MgcRacGAP GTPase-activating activity inhibitors, confirmation, biochemical, ADP Hunter fluorescence, primary and confirmatory (AID 624330);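 further: fluorescence reports GDP produced by GAP-driven GTP hydrolysis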
Settings: MgcRacGAP-stimulated Rac1 GTP hydrolysis, at 30 µM, stronger effect = higher value, GST-tagged Rac1 F28L mutant substrate

By UniProt entry, the sequences of proteins in these tests, tags left out.
UniProt Q9H0H5, whole entry: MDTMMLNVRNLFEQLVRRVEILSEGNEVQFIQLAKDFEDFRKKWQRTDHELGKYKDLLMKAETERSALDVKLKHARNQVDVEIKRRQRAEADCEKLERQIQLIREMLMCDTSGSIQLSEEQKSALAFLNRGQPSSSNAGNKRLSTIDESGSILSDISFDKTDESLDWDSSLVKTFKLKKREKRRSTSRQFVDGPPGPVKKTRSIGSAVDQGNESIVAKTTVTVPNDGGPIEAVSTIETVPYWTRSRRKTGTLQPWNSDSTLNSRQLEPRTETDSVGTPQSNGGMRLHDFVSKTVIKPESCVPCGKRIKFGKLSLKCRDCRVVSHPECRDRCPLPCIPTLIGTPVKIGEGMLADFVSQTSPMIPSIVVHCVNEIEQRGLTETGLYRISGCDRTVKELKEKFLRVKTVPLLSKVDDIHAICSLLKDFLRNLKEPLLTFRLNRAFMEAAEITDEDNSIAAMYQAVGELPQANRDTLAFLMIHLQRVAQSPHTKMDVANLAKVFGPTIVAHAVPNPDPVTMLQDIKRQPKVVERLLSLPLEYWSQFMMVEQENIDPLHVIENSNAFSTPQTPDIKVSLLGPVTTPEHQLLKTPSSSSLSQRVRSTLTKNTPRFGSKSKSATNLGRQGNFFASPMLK

Row | Compound | inhibition
1 | CC(=O)N(c1ccccc1)C1CCNCC1 | inactive: 3.6%
2 | COc1cc(OC)cc(C(=O)NCC2(N3CCCCC3)CCCCC2)c1 | inactive: 6.61%
3 | Fc1ccccc1NC1CCN(Cc2ccccc2)CC1 | inactive: 7.75%
4 | Cc1ccc(C(=O)NCC2(N3CCCCC3)CCCCC2)o1 | inactive: 2.21%
5 | Cc1ccc(NC2(C#N)CCN(Cc3ccccc3)CC2)cc1 | inactive: -0.03%
6 | CCN1CCC(Nc2cccc(F)c2)CC1 | inactive: -1.2%
7 | Cc1ccccc1NC1(C#N)CCN(Cc2ccccc2)CC1 | inactive: -7.21%
8 | CN(C)c1ccc(C(=O)NCC2(N3CCCCC3)CCCCC2)cc1 | inactive: 7.01%
9 | Cn1c(=O)[nH]cc(N(CCCl)CCCl)c1=O | inactive: 8.21%
10 | O=C(NCC1(N2CCCCC2)CCCCC1)c1ccco1 | inactive: 5.74%
11 | CN1CCC(Nc2ccc(F)c(Cl)c2)CC1 | inactive: 29.5%
12 | CCOc1ncccc1C(=O)NCC1(N2CCOCC2)CCCCC1 | inactive: 3.86%
13 | O=C(O)C1(Nc2ccccc2)CCN(Cc2ccccc2)CC1 | inactive: 6.53%
14 | CC(C)(C)OC(=O)N1CCC(Nc2ccccc2)CC1 | inactive: -1.82%
15 | CCCOc1ccc(C(=O)NCC2(N(C)C)CCCCC2)cc1 | inactive: 6.36%
16 | COc1cc(OC)cc(C(=O)NCC2(N3CCOCC3)CCCCC2)c1 | inactive: 8.39%
17 | COc1cccc(C(=O)N(c2cc(C)cc(C)c2)C2CCN(C(=O)OC(C)(C)C)CC2)c1 | inactive: 5.74%
18 | CCC(CO)(C(=O)OC1CN2CCC1CC2)c1ccccc1 (configuration not stated) | inactive: -2.63%
19 | CN1CCC(Nc2ccc(Cl)cc2)CC1 | inactive: 13.3%
20 | COc1cc(C(=O)NCC2(N3CCOCC3)CCCCC2)cc(OC)c1C | inactive: 6%
21 | O=C(NCC1(N2CCOCC2)CCCCC1)c1cc(Br)ccc1Cl | inactive: -3.54%
22 | COc1ccc(C(=O)NCC2(N3CCOCC3)CCCCC2)cc1OC | inactive: -1.53%
23 | CCOC(=O)N1CCC(Nc2ccc(C)cc2)CC1 | inactive: 15%
24 | N/C(=N\O)c1c(N)no[n+]1[O-] | inactive: 12.6%

Row | Compound | inhibition
25 | O=C(OC1CN2CCC1CC2)C1c2ccccc2C=Cc2ccccc21 (configuration not stated) | inactive: -0.09%
26 | N#Cc1ccc(C(=O)NCC2(N3CCCCC3)CCCCC2)cc1 | inactive: -0.97%
27 | CC(C)(C)OC(=O)N1CCC(N(C(=O)c2ccccc2)c2ccc(Cl)cc2)CC1 | inactive: 1.47%
28 | CN(C)C1(CNC(=O)c2cccc(C#N)c2)CCCCC1 | inactive: 9.16%
29 | CCCN1CCC(Nc2cc(OC)cc(OC)c2)CC1 | inactive: 11.5%
30 | Cc1cc(N(CCCl)CCCl)ccc1C=O | inactive: 4.49%
31 | c1ccc(CN2CCC(Nc3ccccc3)CC2)cc1 | inactive: 8.92%
32 | O=C(NCC1(N2CCCCC2)CCCCC1)c1ccc(OC(F)F)cc1 | inactive: 4.48%
33 | N#CC1(Nc2ccccc2)CCN(CCc2ccccc2)CC1 | inactive: 9.99%
34 | CCN1CCC(Nc2ccc(Cl)cc2)CC1 | inactive: -5.28%
35 | CSc1ccc(C(=O)NCC2(N3CCOCC3)CCCCC2)cc1 | inactive: 11.5%
36 | O=C(NCC1(N2CCCCC2)CCCCC1)c1cccc([N+](=O)[O-])c1 | inactive: 6.89%
37 | O=C(NCC1(N2CCCCC2)CCCCC1)c1cccc(C(F)(F)F)c1 | inactive: 14.3%
38 | COc1cc(C(=O)NCC2(N3CCCCC3)CCCCC2)ccc1OC(F)F | inactive: -13.3%
39 | O=C(NCC1(N2CCOCC2)CCCCC1)c1cc(=O)[nH]c2ccccc12 | inactive: -1.02%
40 | CN1CCN(CCOC(=O)C(O)(c2ccccc2)c2ccccc2)CC1 | inactive: 8.16%
41 | CC(C)c1ccc(C(=O)NCC2(N3CCOCC3)CCCCC2)cc1 | inactive: 7.99%
42 | CC(C)c1ccc(NC2CCN(C(=O)OC(C)(C)C)CC2)cc1 | inactive: 3.06%
43 | CN(C)c1cccc(C(=O)NCC2(N3CCCCC3)CCCCC2)c1 | inactive: 4.09%
44 | COc1ccc(CN(CCCl)CCCl)cc1Cl | inactive: -2.54%
45 | O=C(NCC1(N2CCOCC2)CCCCC1)c1cc(F)c(F)cc1Cl | inactive: 2.84%
46 | COc1cc(OC)c(C(=O)NCC2(N(C)C)CCCCC2)cc1OC | inactive: 10%
47 | CN1CCC(Nc2cccc(F)c2)CC1 | inactive: 18.2%
48 | O=C(NCC1(N2CCCCC2)CCCCC1)c1cncc(Br)c1 | inactive: 6.21%

Row | Compound | inhibition
49 | CCCOc1ccc(C(=O)NCC2(N(C)C)CCCCC2)cc1OC | inactive: 11.2%
50 | Cc1ccc(C(=O)NCC2(N(C)C)CCCCC2)o1 | inactive: 13.8%
51 | COc1ccc(C(=O)NCC2(N3CCCCC3)CCCCC2)c(OC)c1OC | inactive: 0.92%
52 | CC(C)(C)OC(=O)N1CCC(N(C(=O)c2ccccc2)c2ccc(F)cc2)CC1 | inactive: 7.42%
53 | COc1ccc(C(=O)NCC2(N3CCCCC3)CCCCC2)cc1 | inactive: -3.68%
54 | O=C(NCC1(N2CCCCC2)CCCCC1)c1cccs1 | inactive: -6.27%
55 | O=C(NCC1(N2CCCCC2)CCCCC1)c1ccc(=O)[nH]c1 | inactive: 1.32%
56 | Cc1cccc(NC2(C#N)CCN(Cc3ccccc3)CC2)c1 | inactive: 4%
57 | CSc1ccccc1C(=O)NCC1(N2CCCCC2)CCCCC1 | inactive: 3.06%
58 | Cc1cc(C)cc(N(C(=O)c2ccccc2)C2CCN(C(=O)OC(C)(C)C)CC2)c1 | inactive: 9%
59 | O=C(NCC1(N2CCCCC2)CCCCC1)c1ccc(Cl)nc1 | inactive: 4.32%
60 | O=C(NCC1(N2CCOCC2)CCCCC1)c1cc2ccccc2o1 | inactive: 13.4%
61 | COc1ccc(Cl)cc1C(=O)NCC1(N2CCOCC2)CCCCC1 | inactive: -1.09%
62 | N#CC1(Nc2ccccc2)CCN(Cc2ccccc2)CC1 | inactive: 8.22%
63 | O=C(NCC1(N2CCCCC2)CCCCC1)c1ccc(Cl)s1 | inactive: 4.82%
64 | O=C(OC1CN2CCC1CC2)C1c2ccccc2Oc2ccccc21 (configuration not stated) | inactive: 7.21%
65 | O=C1CCN(Cc2ccccc2)CC1 | inactive: 0.53%
66 | CCOc1ccc(C)cc1CN(CCCl)CCCl | inactive: -2.2%
67 | CCOC(=O)N1CCC(Nc2ccc(F)cc2)CC1 | inactive: 12.8%
68 | O=P1(N(CCCl)CCCl)SCCCS1 | inactive: -0.37%
69 | CCCCOc1ccc(C(=O)NCC2(N3CCOCC3)CCCCC2)cc1 | inactive: 4.15%
70 | O=C(NCC1(N2CCCCC2)CCCCC1)c1ccc(F)cc1 | inactive: 10.2%
71 | CCOC(=O)N1CCC(Nc2cccc(C)c2)CC1 | inactive: 1.07%
72 | COc1cc(C(=O)NCC2(N(C)C)CCCCC2)ccc1OC(F)F | inactive: 4.63%

Reference: PubChem BioAssay AID624330 (Southern Research Specialized Biocontainment Screening …, 2012)
